## Apparent affinities of Ab-14 variants for a coronavirus HR2 peptide

Reference: Engelhart et al. 2022, doi:10.1038/s41597-022-01779-4. File: FLAb, binding data.

Antigen: PDVDLGDISGINAS, a 14-residue peptide of the SARS-CoV-2 spike HR2 region.

The variants keep the heavy chain, the linker and the frameworks of Ab-14 (scFv order VH, a (GGGGS)3 linker, VL).
VH: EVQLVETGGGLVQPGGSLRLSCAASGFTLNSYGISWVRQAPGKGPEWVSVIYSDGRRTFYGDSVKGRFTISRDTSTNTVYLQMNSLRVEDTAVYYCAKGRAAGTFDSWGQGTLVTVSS
VL: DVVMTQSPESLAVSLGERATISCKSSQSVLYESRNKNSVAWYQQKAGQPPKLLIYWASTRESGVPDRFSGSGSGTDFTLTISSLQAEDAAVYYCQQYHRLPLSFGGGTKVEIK

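Phage display of a naive human antibody library on the peptide gave the parent. AAYL50 was designed without a model: most single CDR substitutions and a random sample of double and triple ones. The assay is AlphaSeq: two haploid yeast populations carry antibody and antigen on their surface. The frequency of each diploid, read from paired DNA barcodes, reflects how well the two displayed proteins bind. A regression on co-assayed BCL2-family reference pairs converts the normalised counts of each replicate to an apparent Kd. There are three technical replicates.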

Variants are written as CDR1, CDR2 and CDR3 of the light chain (limits as in the source). Parent: KSSQSVLYESRNKNSVA, WASTRES, QQYHRLPLS.
Every variant below is changed at H98 of the VL (sequential numbering).
The Kd shown is the geometric mean over detected replicates; a lower Kd is a better binder.
A pair that was not seen in any replicate is written "no signal"; this usually means weak binding, but a binder can also be missed.
As a blank, each scFv also met three strains without target: over library AAYL50, 18% of these pairings were detected, typically at 15 µM and seldom below 970 nM.
For reference, the parent read 4.4 nM as the reference entry and 48 nM as a member of this library.

| CDR-L1 | CDR-L2 | CDR-L3 | Kd | seen in |
|---|---|---|---|---|
| KSSQSVLYESRNKHSVA | WAGTRES | QQYNRLPLS | 32 nM | 3/3 |
| KSSQSVLYEVRNKNSVA | WASTDES | QQYWRLPLS | 6.3 µM | 1/3 |
| KSSTSVLYESRNKNSGA | WASTRES | QQYRRLPLS | 13 µM | 1/3 |
| KSSQSVLYESRNKNSVA | WASPIES | QQYVRLPLS | 53 µM | 2/3 |
| KISQSVLYEPRNKNSVA | WASTRES | QQYCRLPLS | 670 pM | 3/3 |
| KSSQSVLYESRSKNSVA | WAHTRES | QQYFRLPLS | 20 nM | 3/3 |
| KSSQSVLYESRNWNSVA | EASTRES | QQYKRLPLS | 9.5 nM | 3/3 |
| KSSQSVLYESRNKNSVA | WASTRRS | QQYCRLVLS | no signal | 0/3 |
| KSSQSVLYESRQKNSVA | DASTRES | QQYPRLPLS | 160 µM | 2/3 |
| KSSQSVLYESRNKYSVA | WASTGES | QQYDRLPLS | 5.5 µM | 2/3 |
| KSSQSMLAESRNKNSVA | WASTRES | QQYIRLPLS | 11 nM | 3/3 |
| KSSNSVLYESRNKNSVA | WASTRES | QQYGRLPLE | 37 nM | 3/3 |
| KSSQSVLYESRNMNYVA | WASTRES | QQYGRLPLS | 220 nM | 3/3 |
| KSSQSVLYESRNKNSVA | KASRRES | QQYYRLPLS | 4.3 nM | 3/3 |
| KSSQSVLYESRNKNSVA | CASTRES | QQYVRLQLS | 95 nM | 3/3 |
| KCSQSVLYESKNKNSVA | WASTRES | QQYIRLPLS | 49 nM | 3/3 |
| KSSQSVLYESRNKNSVA | WASTRES | QCYARLPLS | no signal | 0/3 |
| KSSQSVLYKSRNKNSVA | WASTRES | QCYKRLPLS | 58 µM | 1/3 |
| KSSKSVLYESRNKNSVA | WASTIES | QQYTRLPLS | 2.0 µM | 1/3 |
| KSSQSVLYESRNKNSVA | WASTRES | QSYWRCPLS | 50 nM | 3/3 |
| KSSQNVLYESRNKNSVA | WASMRES | QQYCRLPLS | 430 nM | 3/3 |
| KSSQSVLYESRNKNSVA | WASTRES | QQYQRLPLS | 9.6 nM | 3/3 |
| KSSQSVLYESRNKYSVA | WASTRES | QQYAALPLS | 15 nM | 3/3 |
| KSSQMVLYESRNKNSVA | WASTRES | QQYDRQPLS | 63 nM | 3/3 |
| KSSQSVLYEARNKNSVA | WASTRES | QQYEALPLS | 170 nM | 3/3 |
| KSSQSVLYESRNKNSVA | WASTRES | QQYIRCPTS | no signal | 0/3 |
| KSSQSVLYESRNDNYVA | WASTRES | QQYFRLPLS | 24 nM | 3/3 |
| KSSQSVLYESRNKNSVA | WESTRES | QHYLRLPLS | no signal | 0/3 |
| KSSQPVLYESRNKNSVA | WASTRES | QQYDRRPLS | 24 µM | 2/3 |
| KSSQSVLLESRNKNSVA | WASTRES | QYYPRLPLS | 21 µM | 2/3 |
| KSSQSVLYESRNLNSVA | WASTRES | QGYGRLPLS | 530 nM | 3/3 |
| KSSQSVLYESRNKNSVA | WASTRES | QQDNRLPLS | no signal | 0/3 |
| KVSQSVLYESRNKNSVA | WASTRES | QQYKRMPLS | 3.2 nM | 3/3 |
| KSSQSVLYESRNKNSVA | NASTRES | QQYYRLPLS | 9.7 µM | 2/3 |
| KSSQSVLYESRNKNSVA | WASTRES | SQYTRLPLS | 17 µM | 3/3 |
| KYSQSPLYESRNKNSVA | WASTRES | QQYKRLPLS | 6.3 nM | 3/3 |
| KSSQSVLLESRNKNSVA | WASTWES | QQYRRLPLS | 43 µM | 1/3 |
| KSSHFVLYESRNKNSVA | WASTRES | QQYPRLPLS | 100 µM | 2/3 |
| KSSQSVLYESRAKNSVA | WASTRES | QQYNRLPLS | 9.2 nM | 3/3 |
| KSSQSVLYESRNKNSEA | WASTRES | QQHVRLPLS | no signal | 0/3 |
| VSSQSVLYESRNKNSVA | WASTRES | QQYMFLPLS | 1.5 µM | 1/3 |
| KSWQSVLYESRNKNSVA | WASTRAS | QQYFRLPLS | 1.6 nM | 3/3 |
| KSSQSVLYESRNKNSVA | WVSTRES | QQYMRLPLS | 60 nM | 3/3 |
| KSSQSVLYISRNKNSVA | WASTRES | QQYQRLPGS | 2.6 µM | 3/3 |
| KSSQGVLYESRNKNSVA | WASNRES | QQYSRLPLS | 61 nM | 3/3 |
| KSSQSVLYESRNKNSVA | WESMRES | QQYMRLPLS | 4.3 nM | 3/3 |
| KSSNSVLYESRNKNWVA | WASTRES | QQYMRLPLS | 40 nM | 3/3 |
| KSCQSVLYESRNKNSVA | WASTRGS | QQYIRLPLS | 56 nM | 3/3 |
| KSSQYVLYESRNKNSVA | YASTRES | QQYQRLPLS | 3.4 nM | 3/3 |
| KSSQSVLYESRNKNSVA | WASTRES | GQYQTLPLS | 6.6 µM | 2/3 |
| KSSQSVLYESRNKNSVA | WASTRES | QQYNTLPRS | 890 µM | 1/3 |
| KSSQWVLYEHRNKNSVA | WASTRES | QQYMRLPLS | 140 nM | 3/3 |
| KSSQSVLYESRNKKSVA | WASTRES | SQYARLPLS | 290 nM | 3/3 |
| KSSQSVLYESRNKNSVA | WACTAES | QQYCRLPLS | no signal | 0/3 |
| KSSQSVLYYSRNKNSVA | WASTRES | QQYTRLPLG | no signal | 0/3 |
| KSSQSVLIESRNKNSVA | WATTRES | QQYARLPLS | 3.8 nM | 3/3 |
| KSSQSVLYESFNKNSVA | WASTRES | QQYYRLPLS | 5.9 nM | 3/3 |
| KSSQSVLYESRNKNSVA | WASTRES | QQYKRWILS | 4.9 nM | 3/3 |
| KSSQSVYYESRNKNSVA | WDSTRES | QQYSRLPLS | 4.0 nM | 3/3 |
| KSSQSVLYESRWKNSVA | WASTREF | QQYKRLPLS | 12 µM | 2/3 |
| KSSQSVLYESRNKNSRM | WASTRES | QQYQRLPLS | no signal | 0/3 |
| KSSQSVLYESRNKNSDA | WASTRES | QQYLRLPLS | 120 nM | 1/3 |
| TSSQSVLYESRNKNSVA | WASTRPS | QQYSRLPLS | 110 nM | 3/3 |
| KSSQSVLYESRNTNSVA | WASTREI | QQYIRLPLS | 2.5 µM | 1/3 |
| KSSQSVLYESRNKNCVN | WASTRES | QQYLRLPLS | 110 nM | 3/3 |
| KSSQSVLYESRNKISVA | WLSTRES | QQYERLPLS | no signal | 0/3 |
| KSSQSVFYEERNKNSVA | WASTRES | QQYKRLPLS | 1.7 nM | 3/3 |
| KSSQSVNYESRNKNSVA | WASTRES | QQYERLPLV | 14 nM | 3/3 |
| KSSQSVLYEVRNKQSVA | WASTRES | QQYGRLPLS | 47 nM | 3/3 |
| KSSQSVLYESRNINSVA | WASTRES | QQYERLPLS | 170 nM | 3/3 |
| LSSQSVLYESRNKNSVA | WASTRES | QQYTRLPLH | no signal | 0/3 |
| KSSQSVLYASRNKNSVA | WASTRES | QQYKRLPDS | 8.0 nM | 3/3 |
| KSSQSVLYHSRNKNSPA | WASTRES | QQYTRLPLS | no signal | 0/3 |
| KSSQSVLVESRNKNSVA | WASTRES | QQYDRFPLS | 3.7 nM | 3/3 |
| KSSGSVLYESRNKNSVA | WASTRES | QQYGRLPVS | 8.5 nM | 3/3 |
| KSSQSVLYESRNKNSVA | WAITRES | QQYVRLPLS | 6.5 µM | 3/3 |
| MSSQSVLYESRNKNSVA | WASTRES | QQYPRLCLS | 1.8 µM | 1/3 |
| KSSQSVLYESRNKNWVA | WHSTRES | QQYIRLPLS | 23 µM | 1/3 |
| RSSQSVLYESRNKNSVA | WASTRES | IQYKRLPLS | 10 µM | 3/3 |
| KSYQSVWYESRNKNSVA | WASTRES | QQYTRLPLS | 460 nM | 3/3 |

A selection of 12 entries from above:

| CDR-L1 | CDR-L2 | CDR-L3 | Kd | seen in |
|---|---|---|---|---|
| KSSQSVFYEERNKNSVA | WASTRES | QQYKRLPLS | 1.7 nM | 3/3 |
| KSSKSVLYESRNKNSVA | WASTIES | QQYTRLPLS | 2.0 µM | 1/3 |
| TSSQSVLYESRNKNSVA | WASTRPS | QQYSRLPLS | 110 nM | 3/3 |
| KSSQSVLYESRNWNSVA | EASTRES | QQYKRLPLS | 9.5 nM | 3/3 |
| KSSQPVLYESRNKNSVA | WASTRES | QQYDRRPLS | 24 µM | 2/3 |
| KSSQSVLYESRNKNSVA | WASPIES | QQYVRLPLS | 53 µM | 2/3 |
| KSSQSVNYESRNKNSVA | WASTRES | QQYERLPLV | 14 nM | 3/3 |
| KSSNSVLYESRNKNWVA | WASTRES | QQYMRLPLS | 40 nM | 3/3 |
| KSSQSMLAESRNKNSVA | WASTRES | QQYIRLPLS | 11 nM | 3/3 |
| KSSQSVLYESRNKHSVA | WAGTRES | QQYNRLPLS | 32 nM | 3/3 |
| KSSQSVLYESRQKNSVA | DASTRES | QQYPRLPLS | 160 µM | 2/3 |
| KSSQSVLYESRNKNSVA | WASTRES | QSYWRCPLS | 50 nM | 3/3 |